Values quoted from earlier work as cited in US20060136023A1 (priority 2004, published 2006).

The chains behind the UniProt entries cited, without tags or fusion partners.
UniProt P41143, whole entry, looked up: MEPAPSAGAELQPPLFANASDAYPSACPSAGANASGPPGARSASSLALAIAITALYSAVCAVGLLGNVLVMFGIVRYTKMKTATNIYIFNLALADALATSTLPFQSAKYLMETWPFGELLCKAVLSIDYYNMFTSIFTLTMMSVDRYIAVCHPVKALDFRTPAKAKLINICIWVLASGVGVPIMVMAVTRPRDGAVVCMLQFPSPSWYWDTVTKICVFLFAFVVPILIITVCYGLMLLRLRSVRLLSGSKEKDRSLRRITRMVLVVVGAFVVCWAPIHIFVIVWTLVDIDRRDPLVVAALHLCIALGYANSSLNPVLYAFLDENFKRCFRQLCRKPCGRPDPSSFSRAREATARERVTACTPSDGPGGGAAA

Assays:
delta receptor = delta receptor (Homo sapiens, UniProt P41143); details: competitive antagonists at the delta receptor
[1] = when used in animals

Row | Compound | block of the respiratory sedation caused by fentanyl (delta receptor) | properties at the opiate receptor (opiate receptor) | respiratory sedation [1]
1 | Oc1ccc2c3c1O[C@H]1c4[nH]c5ccccc5c4C[C@@]4(O)[C@@H](C2)N(CC2CC2)CC[C@]314 | can block the respiratory sedation | – | –
2 | 1,3 dimethyl-4-propyl-4-hydroxyphenyl piperdine (cis 3-methyl, 4-propyl) | – | antagonist properties | ceiling effect
